In patent US11319331B2, “Probe for selective detection of hypochlorous acid (HOCl) under physiological condition, and related methods” (Council of Scientific & Industrial Research, priority 2017, dated 2022):

Columns and labels:
RAW 264.7 cells = test: MTT assay, in vitro cytotoxicity / cell viability
[1] = luminescence spectra at different pH

Question: Which “toxicity towards RAW 264.7 macrophage cells (MTT)” value (RAW 264.7 cells) does the source give for “E)-4-(2-(5,5-difluoro-1,7,9-trimethyl-10-phenyl-5H-5λ^4,6λ^4-dipyrrolo[1,2-c:2′,1′-f][1,3,2]diazaborinin-3-yl)vinyl)benzene-1,2-diol [SF-1]” here?
Answer: Its value is “non-toxic”.

Question: What about the “pH range in which stable in aqueous solution” value [1] of the same substance?
Answer: The value was 4-9 pH.
